Target: Spermidine/spermine Ni-acetyltransferase family member 2 (human) (UniProt Q96F10)

Protein sequences, listed by entry. Tags and fused reporters are not part of them. Lines headed by an entry give the natural chain unless they say otherwise; changes in a name come on top.
UniProt Q96F10: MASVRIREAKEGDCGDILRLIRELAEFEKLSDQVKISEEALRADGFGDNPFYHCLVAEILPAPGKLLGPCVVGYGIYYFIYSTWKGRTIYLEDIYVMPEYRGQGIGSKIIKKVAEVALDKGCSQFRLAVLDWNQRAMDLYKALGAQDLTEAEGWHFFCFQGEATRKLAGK

Substance: biotinylated full-length Dengue virus capsid (DENV C) protein
- Signal Intensity: 1010
- Z-score: 3.9

From patent US20170158742A1
